## Antibody variant affinities, Ab-95 light chain, assay 2

All variants were tested on one target, the spike HR2 peptide PDVDLGDISGINAS (SARS-CoV-2).

Parent scFv Ab-95: VH joined to VL by a (GGGGS)3 linker. Changes lie in the light chain CDRs alone.
VH: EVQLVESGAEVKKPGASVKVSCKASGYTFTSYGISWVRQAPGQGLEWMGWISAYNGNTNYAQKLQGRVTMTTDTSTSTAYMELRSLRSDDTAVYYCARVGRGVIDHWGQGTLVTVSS
VL: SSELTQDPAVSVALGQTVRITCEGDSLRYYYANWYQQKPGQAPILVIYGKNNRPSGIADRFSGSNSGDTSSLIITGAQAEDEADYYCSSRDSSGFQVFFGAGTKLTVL

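The parent was found by panning a naive human phage display library on the peptide. The library (AAYL52) carries one to three amino acid substitutions per variant, with no insertions or deletions. Affinity was read by AlphaSeq, a pooled yeast mating assay with surface-displayed partners. Mating (16 h, 30 °C) was followed by selection of diploids and sequencing of their barcodes. Read counts were normalised to the haploid input and turned into Kd by a linear fit to BCL2-family pairs of known affinity, for each replicate. Mating was done three times.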

Positions count from residue 1 of the parent VL; E23V puts V in place of E. This list gathers variants with a substitution at A32 (VL, numbered from residue 1). Kd is apparent (estimated from mating counts) and averaged on the log scale over replicates with a signal. Smaller is tighter. Where no diploid with the target was found in any replicate, the entry reads "nd": below detection, most likely a poor binder, though not proof of it. Nonspecific signal, from three strains lacking the peptide, appeared in 28% of pairings of library AAYL52, centred on 8.2 µM (5% of these signals below 800 nM); values are not corrected for it.

| changes | Kd (apparent) | replicates with signal |
|---|---|---|
| E23V/A32S/F95N | 980 nM | 3 of 3 |
| A32D/N52K/S93D | nd | 0 of 3 |
| Y30G/A32G/S88C | 41 nM | 3 of 3 |
| A32Q/N51R/S93V | 1.6 µM | 1 of 3 |
| Y29G/A32G/N52G | 200 nM | 3 of 3 |
| A32I/S55P/S88L | 8.1 µM | 1 of 3 |
| G24I/D25N/A32M | 35 µM | 2 of 3 |
| A32G/S55Q/G94D | 4.0 µM | 3 of 3 |
| G24A/A32F/N52R | 25 µM | 2 of 3 |
| A32V/R53L/D91S | 6.9 µM | 1 of 3 |
| D25L/A32V/D91W | 620 nM | 3 of 3 |
| A32Y/K50F/Q96D | 7.3 µM | 2 of 3 |
| S26C/A32T/S88V | 13 µM | 2 of 3 |
| A32W/S89M/Q96P | 10 µM | 3 of 3 |
| S26Q/A32W/S88H | 37 µM | 2 of 3 |
| A32C | 68 nM | 3 of 3 |
| G24P/A32Q/N52M | 740 nM | 1 of 3 |
| A32K/N51R/R53F | 8.1 µM | 3 of 3 |
| E23W/A32L/F98P | 34 µM | 1 of 3 |
| Y29R/A32E/R53A | nd | 0 of 3 |
| A32V/N33D/S93A | 5.4 µM | 3 of 3 |
| L27R/A32G/G49I | 560 µM | 1 of 3 |
| A32Y/N33I/P54L | 980 nM | 3 of 3 |
| S26R/R28N/A32R | 580 nM | 3 of 3 |
| Y29I/A32N/R53S | 10 µM | 3 of 3 |
| A32L/N51R/S92F | 290 µM | 1 of 3 |
| S26Y/A32G/P54V | 4.8 µM | 3 of 3 |
| R28F/A32P/F98E | 2.5 µM | 3 of 3 |
| R28N/A32N/G94F | 14 µM | 2 of 3 |
| Y30T/A32G/G94L | 900 nM | 3 of 3 |
| A32R/S93C/V97A | 29 µM | 2 of 3 |
| A32F/K50D/Q96Y | 490 nM | 3 of 3 |
| Y29A/A32E/S93E | nd | 0 of 3 |
| A32F/S55Y/F95L | nd | 0 of 3 |
| S26W/A32G/N52K | 66 µM | 1 of 3 |
| A32H/D91A/S93C | 4.1 µM | 1 of 3 |
| Y29W/A32F/F98S | 23 µM | 1 of 3 |
| A32P/R53Q/R90F | 3.2 µM | 3 of 3 |
| Y29R/A32R/P54N | 210 µM | 3 of 3 |
| R28I/A32N/V97K | 2.6 µM | 2 of 3 |
| D25M/A32V/S93Y | 1.1 µM | 3 of 3 |
| A32H/S88W | 4.3 µM | 1 of 3 |
| E23A/A32W | 4.3 µM | 1 of 3 |
| A32Y/R90C/S92V | 3.5 µM | 1 of 3 |
| A32Y/G49R/K50Q | 26 µM | 3 of 3 |
| G24S/A32F/S55C | 15 µM | 1 of 3 |
| L27N/A32C/G49C | 750 nM | 3 of 3 |
| D25C/A32D/V97I | 2.8 µM | 1 of 3 |
| A32D/R53L/Q96G | 8.7 µM | 2 of 3 |
| Y29M/A32R/F95K | 730 nM | 3 of 3 |
| A32S/G49I/F95V | nd | 0 of 3 |
| A32R/S88L/V97W | nd | 0 of 3 |
| A32F/N51R | nd | 0 of 3 |
| A32K/S93P/F95Q | 360 nM | 1 of 3 |
| Y29C/A32D/K50V | nd | 0 of 3 |
| L27V/A32E/F95E | 17 µM | 1 of 3 |
| A32G/P54V | 2.9 µM | 2 of 3 |

Top 7 of the variants detected in all replicates, tightest first:

{"changes": "Y30G/A32G/S88C", "Kd (apparent)": "41 nM", "replicates with signal": "3 of 3"}
{"changes": "A32C", "Kd (apparent)": "68 nM", "replicates with signal": "3 of 3"}
{"changes": "Y29G/A32G/N52G", "Kd (apparent)": "200 nM", "replicates with signal": "3 of 3"}
{"changes": "A32F/K50D/Q96Y", "Kd (apparent)": "490 nM", "replicates with signal": "3 of 3"}
{"changes": "S26R/R28N/A32R", "Kd (apparent)": "580 nM", "replicates with signal": "3 of 3"}
{"changes": "D25L/A32V/D91W", "Kd (apparent)": "620 nM", "replicates with signal": "3 of 3"}
{"changes": "Y29M/A32R/F95K", "Kd (apparent)": "730 nM", "replicates with signal": "3 of 3"}

For reference, the parent read 200 nM as the reference entry and 180 nM as a member of this library.

Source: Engelhart et al. 2022 (doi:10.1038/s41597-022-01779-4), MIT Lincoln Laboratory and A-Alpha Bio; data file from the FLAb repository.